This test deals with T1, human Claudin18.2 (CLDN18.2) on the surface of CHO-K1-CLDN18.2 cells (human, UniProt P56856-2 1-261).
T1 construct: whole, on cells; Membrane protein overexpressed on CHO-K1 cells; also called hCLDN18.2; antigen on the surface of CHO-K1-CLDN18.2 cell
The test can be described thus: cell ELISA on CHO-K1-CLDN18.2 cells. As for the experimental part: CHO-K1-CLDN18.2 cells (Chinese hamster ovary cells CHO-K1 overexpressing CLDN18.2, CHO-K1 purchased from Cell Resource Center, Institute of Basic Medical Sciences, Chinese Academy of Medical Sciences, Cat. No.: 3111C0001CCC000004) were plated on a cell plate (Corning, 3599) at 2×10⁴ cells/well and cultured overnight at 5% CO₂ and 37° C., and then the cell plate in which the cells were incubated was washed once with PBST and blocked for 2 h at 37° C. using PBST containing 1% BSA as a blocking solution. After blocking, the plate was washed 3 times with PBST. The ELISA plate containing the test antibodies was incubated at 37° C. for 30 min and then washed 3 times with PBST. […] Then, the plate was incubated at 37° C. for 30 min. After incubation, the plate was washed 4 times with PBST, TMB (Neogen, 308177) was added for color developing in the dark for 5 min, and then a stop solution was added to terminate the chromogenic reaction. The ELISA plate was put into a microplate reader immediately, and the OD value of each well in the ELISA plate was read at 450 nm. The data were analyzed and processed by SoftMax Pro 6.2.1.

B1: humanized anti-human CLDN18.2 antibody 8C5.1H3L3 (antibody, human IgG1, kappa, V domains shown)
VH: EVQLVESGGGLVKPGGSLRLSCAASGFTFSNSAVSWVRQAPGKGLEWVSSITSGVSYTYYADSVKGRFTISRDNAKNSLYLQMNSLRAEDTAVYYCTRQFKGNALDYWGQGTSVTVSS
VL: DIVMTQSPSSLSVSPGERVTISCKSSQSLLNSGNQKNYLAWYQQKPGQPPKLLIYWASTRESGVPDRFSGSGSGTDFTLTISSLQAEDVAVYYCQNDYFYPLTFGAGTKLELKR
In turn, B1 gave a half-maximal effective concentration (EC50) of 0.11 nM.

Source of the values: patent US20250376517A1 (AKESO BIOPHARMA, published 2025).
